The values below come from patent publication US6979572B1, “Compositions and methods for inhibiting inward-rectifier potassium channels” (Trustees of the University of Pennsylvania, priority 1998, dated 2005).

One test deals with T1, GIRK1/4 channel (Rattus norvegicus, UniProt P48548+P63251).
T1 construct: expressed in transfected cells; host or cells: Xenopus laevis oocytes (cRNA injection)
T1 sequence (P63251 1-501): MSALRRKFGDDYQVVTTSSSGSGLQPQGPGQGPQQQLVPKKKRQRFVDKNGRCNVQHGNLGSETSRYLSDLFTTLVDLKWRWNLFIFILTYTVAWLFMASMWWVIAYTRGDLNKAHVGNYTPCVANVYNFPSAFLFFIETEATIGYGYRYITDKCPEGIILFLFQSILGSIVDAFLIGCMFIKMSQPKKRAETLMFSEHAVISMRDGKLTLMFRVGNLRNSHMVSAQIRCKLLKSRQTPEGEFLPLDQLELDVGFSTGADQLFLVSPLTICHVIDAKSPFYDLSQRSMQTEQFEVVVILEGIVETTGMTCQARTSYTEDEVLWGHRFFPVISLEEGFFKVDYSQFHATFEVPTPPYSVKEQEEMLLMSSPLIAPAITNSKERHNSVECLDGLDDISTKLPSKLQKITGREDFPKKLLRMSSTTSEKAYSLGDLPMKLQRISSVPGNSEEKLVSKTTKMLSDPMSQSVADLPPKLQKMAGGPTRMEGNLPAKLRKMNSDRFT
T1 sequence (P48548 1-419): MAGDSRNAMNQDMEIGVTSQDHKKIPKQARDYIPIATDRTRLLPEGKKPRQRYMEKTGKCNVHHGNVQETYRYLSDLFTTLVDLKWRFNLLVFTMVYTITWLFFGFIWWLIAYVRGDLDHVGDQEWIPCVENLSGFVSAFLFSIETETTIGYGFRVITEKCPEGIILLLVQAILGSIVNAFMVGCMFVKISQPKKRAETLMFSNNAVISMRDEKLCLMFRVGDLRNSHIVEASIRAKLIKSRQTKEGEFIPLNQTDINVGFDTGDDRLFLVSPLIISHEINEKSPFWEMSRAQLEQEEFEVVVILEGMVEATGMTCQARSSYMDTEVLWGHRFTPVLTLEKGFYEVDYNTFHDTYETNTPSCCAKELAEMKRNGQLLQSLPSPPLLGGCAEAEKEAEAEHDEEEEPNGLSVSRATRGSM
The test can be described thus: cell-based. The format is cell-based. The conditions noted are these: each at 10 nM; read-out: inhibition of the GIRK1/4 current.

Another test deals with T2, ROMK1 P120A channel (Rattus norvegicus, UniProt P35560, P120A).
T2 construct: expressed in transfected cells; host or cells: Xenopus laevis oocytes (cRNA injection)
T2 sequence (P35560 1-391 P120A): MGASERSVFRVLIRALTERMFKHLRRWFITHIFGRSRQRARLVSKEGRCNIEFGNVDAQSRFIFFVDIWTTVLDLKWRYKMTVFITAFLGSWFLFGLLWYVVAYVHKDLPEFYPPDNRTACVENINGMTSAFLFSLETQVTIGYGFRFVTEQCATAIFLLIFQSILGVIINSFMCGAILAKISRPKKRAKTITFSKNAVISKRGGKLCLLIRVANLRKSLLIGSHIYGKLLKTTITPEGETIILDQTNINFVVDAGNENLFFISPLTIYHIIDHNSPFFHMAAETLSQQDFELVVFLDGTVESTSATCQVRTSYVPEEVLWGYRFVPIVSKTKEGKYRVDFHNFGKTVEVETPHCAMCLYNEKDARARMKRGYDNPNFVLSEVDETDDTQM
Put plainly: Two-electrode voltage clamp of ROMK1 mutant P120A (equilibrium and kinetics). The conditions noted are these: averaged 1/τoff. The format is cell-based. The text has this:
To identify all potential interaction residues in the M1-M2 linker and thus delineate the toxin receptor, the entire M1-M2 linker in the ROMK1 channel was alanine scanned. All the residues in the M1-M2 linker were replaced one at a time with alanine, or valine when the native residue is alanine (Clackson, T. and Wells, J. A. Science 1995 267:383–386). Alanine has the smallest side-chain with the exception of glycine. Since glycine may introduce instability to a protein, an alanine substitution is generally used in an attempt to remove most side-chain interactions.
The fraction of unblocked currents through the wild-type and five mutant channels were plotted against the concentration of TPNQ. […]
The rate constant for TPNQ (and TPN) binding to the ROMK1 channel is rather large. Consequently, the rates of the channel inhibition by TPNQ at concentrations producing measurable channel inhibition were too fast to be accurately determined using the recording system described herein. […]
All three inward-rectifier K^+ channels, GIRK1/4, ROMK1, and IRK1, were studied using a two-electrode voltage clamp amplifier (Oocyte Clamp OC-725C, Warner Instruments Corp.). […] Tertiapin concentration was calculated using an extinction coefficient 6.1 mM^−1 cm^−1 at 280 nm wavelength. […]

On to `CC[C@H](C)[C@@H]1NC(=O)[C@H](CCCNC(=N)N)NC(=O)[C@H](CC(N)=O)NC(=O)[C@@H]2CSSC[C@@H](C(=O)NCC(=O)N[C@@H](CCCCN)C(=O)N[C@@H](CCCCN)C(N)=O)NC(=O)[C@H](CCCCN)NC(=O)[C@H](CCCCN)NC(=O)[C@H](Cc3c[nH]c4ccccc34)NC(=O)[C@H](CSSC[C@H](NC(=O)[C@H](CC(C)C)NC(=O)[C@H](C)N)C(=O)N[C@@H](CC(N)=O)C(=O)N2)NC(=O)[C@H](CCSC)NC(=O)[C@H](Cc2c[nH]cn2)NC(=O)[C@@H]2CCCN2C(=O)[C@H]([C@@H](C)CC)NC(=O)[C@H]([C@@H](C)CC)NC1=O` [native tertiapin, tertiapin], for which the inhibition at 0.01 µM at GIRK1/4 channel was about 50%.
In the case of `CC[C@H](C)[C@@H]1NC(=O)[C@H](CCCNC(=N)N)NC(=O)[C@H](CC(N)=O)NC(=O)[C@@H]2CSSC[C@@H](C(=O)NCC(=O)N[C@@H](CCCCN)C(=O)N[C@@H](CCCCN)C(N)=O)NC(=O)[C@H](CCCCN)NC(=O)[C@H](CCCCN)NC(=O)[C@H](Cc3c[nH]c4ccccc34)NC(=O)[C@H](CSSC[C@H](NC(=O)[C@H](CC(C)C)NC(=O)[C@H](C)N)C(=O)N[C@@H](CC(N)=O)C(=O)N2)NC(=O)[C@H](CCC(N)=O)NC(=O)[C@H](Cc2c[nH]cn2)NC(=O)[C@@H]2CCCN2C(=O)[C@H]([C@@H](C)CC)NC(=O)[C@H]([C@@H](C)CC)NC1=O` [TPNQ], the koff at ROMK1 P120A channel is 0.024 s⁻¹.

One may read the koff as the rate constant with which the complex falls apart. Read a high koff as fast dissociation.
